Laboratory results taken from patent publication US20110223597A1 (priority 2010, published 2011).

Tests used:
Assay in all cases: in vitro
[1] = system: UGT1A4(*1/*3)/UGT2B10(*1/*1); conditions: human, pH 7.5, KM, HLM UGT1A4(*1/*3)/UGT2B10(*1/*1)
[2] = system: UGT1A4(*1/*1)/UGT2B10(*1/*1); conditions: human, pH 7.5, KM, HLM UGT1A4(*1/*1)/UGT2B10(*1/*1)
[3] = system: UGT2B10(*2/*2)/UGT1A4(*1/*1); conditions: human, pH 7.5, KM, single HLM UGT2B10(*2/*2)/UGT1A4(*1/*1)
[4] = system: UGT1A4(*3/*3)/UGT2B10(*1/*1); conditions: human, pH 7.5, KM, HLM UGT1A4(*3/*3)/UGT2B10(*1/*1)
[5] = system: UGT2B10(*1/*2)/UGT1A4(*1/*1); conditions: human, pH 7.5, KM, HLM UGT2B10(*1/*2)/UGT1A4(*1/*1)
[6] = OLZ-10-N-glucuronide isomer 2 formation

Compound `Cc1cc2c(s1)Nc1ccccc1N=C2N1CCN(C)CC1` [OLZ, Olanzapine] has a Km at 2 h ([1]; OLZ-4′-N-glucuronide formation) of 263 ± 59 µM, a Km at 2 h [1, 6] of 239 ± 22 µM and a Km at 2 h ([2]; OLZ-4′-N-glucuronide formation) of 317 ± 39 µM. For the same compound, the Km at 2 h ([2]; OLZ-10-N-glucuronide isomer 1 formation) was 352 ± 59 µM, the Km at 2 h ([3]; OLZ-4′-N-glucuronide formation) was 796 µM and the Km at 2 h [3, 6] was 271 µM. For the same compound, the Km at 2 h ([4]; OLZ-4′-N-glucuronide formation) was 337 ± 37 µM, the Km at 2 h [4, 6] was 263 ± 86 µM and the Km at 2 h ([5]; OLZ-4′-N-glucuronide formation) was 602 µM. The Km at 2 h [5, 6] was 196 ± 54 µM.
